# According to publication PMC11208427, “Magnesium enhances aurintricarboxylic acid’s inhibitory action on the plasma membrane Ca^2+-ATPase” (Scientific Reports, 2024):
# Substrate: Nc1ncnc2c1ncn2[C@@H]1O[C@H](COP(=O)(O)OP(=O)(O)OP(=O)(O)O)[C@@H](O)[C@H]1O
# Assay: Ca2+-ATPase activity versus ATP concentration (apparent affinity KATP without ATA)
# Format: biochemical, Homo sapiens
# Settings: Mg2+ catalytic (high affinity) and regulatory (low affinity) ATP sites; overall value
protein,measurement,value
"plasma membrane Ca2+-ATPase (PMCA), 90% PMCA4b (Homo sapiens) (protein) MTNPSDRVLPANSMAESREGDFGCTVMELRKLMELRSRDALTQINVHYGGVQNLCSRLKTSPVEGLSGNPADLEKRRQVFGHNVIPPKKPKTFLELVWEALQDVTLIILEIAAIISLVLSFYRPAGEENELCGQVATTPEDENEAQAGWIEGAAILFSVIIVVLVTAFNDWSKEKQFRGLQCRIEQEQKFSIIRNGQLIQLPVAEIVVGDIAQVKYGDLLPADGILIQGNDLKIDESSLTGESDHVKKSLDKDPMLLSGTHVMEGSGRMVVTAVGVNSQTGIILTLLGVNEDDEGEKKKKGKKQGVPENRNKAKTQDGVALEIQPLNSQEGIDNEEKDKKAVKVPKKEKSVLQGKLTRLAVQIGKAGLLMSALTVFILILYFVIDNFVINRRPWLPECTPIYIQYFVKFFIIGITVLVVAVPEGLPLAVTISLAYSVKKMMKDNNLVRHLDACETMGNATAICSDKTGTLTMNRMTVVQAYIGGIHYRQIPSPDVFLPKVLDLIVNGISINSAYTSKILPPEKEGGLPRQVGNKTECALLGFVTDLKQDYQAVRNEVPEEKLYKVYTFNSVRKSMSTVIRNPNGGFRMYSKGASEIILRKCNRILDRKGEAVPFKNKDRDDMVRTVIEPMACDGLRTICIAYRDFDDTEPSWDNENEILTELTCIAVVGIEDPVRPEVPDAIAKCKQAGITVRMVTGDNINTARAIATKCGILTPGDDFLCLEGKEFNRLIRNEKGEVEQEKLDKIWPKLRVLARSSPTDKHTLVKGIIDSTVGEHRQVVAVTGDGTNDGPALKKADVGFAMGIAGTDVAKEASDIILTDDNFTSIVKAVMWGRNVYDSISKFLQFQLTVNVVAVIVAFTGACITQDSPLKAVQMLWVNLIMDTFASLALATEPPTESLLKRRPYGRNKPLISRTMMKNILGHAFYQLIVIFILVFAGEKFFDIDSGRKAPLHSPPSQHYTIVFNTFVLMQLFNEINSRKIHGEKNVFSGIYRNIIFCSVVLGTFICQIFIVEFGGKPFSCTSLSLSQWLWCLFIGIGELLWGQFISAIPTRSLKFLKEAGHGTTKEEITKDAEGLDEIDHAEMELRRGQILWFRGLNRIQTQIKVVKAFHSSLHESIQKPYNQKSIHSFMTHPEFAIEEELPRTPLLDEEEEENPDKASKFGTRVLLLDGEVTPYANTNNNAVDCNQVQLPQSDSSLQSLETSV",Km,215.9 µM
